## Measured affinities in a library of Ab-14 light chain variants

Values reported by Engelhart et al. 2022, doi:10.1038/s41597-022-01779-4 (FLAb copy).

Target: peptide PDVDLGDISGINAS, taken from heptad repeat 2 (HR2) of SARS-CoV-2 spike.

Ab-14 is the parent antibody, in scFv form: VH, then the linker GGGGSGGGGSGGGGS, then VL. The heavy chain is unchanged in all variants.
VH: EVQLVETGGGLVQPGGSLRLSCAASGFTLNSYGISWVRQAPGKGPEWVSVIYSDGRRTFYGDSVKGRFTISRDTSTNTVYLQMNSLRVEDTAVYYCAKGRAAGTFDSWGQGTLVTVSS
VL: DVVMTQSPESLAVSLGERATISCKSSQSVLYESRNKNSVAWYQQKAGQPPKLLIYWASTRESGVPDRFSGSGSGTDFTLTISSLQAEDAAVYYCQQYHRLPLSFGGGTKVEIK

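Phage display of a naive human antibody library on the peptide gave the parent. Library AAYL50 holds single substitutions and randomly drawn double and triple substitutions in the CDRs. Affinity was read by AlphaSeq, a pooled yeast mating assay with surface-displayed partners. The frequency of each diploid, read from paired DNA barcodes, reflects how well the two displayed proteins bind. Scores were corrected for input abundance and mapped to Kd with protein pairs of known affinity run in the same pool. Mating was done three times.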

Changes read parent residue, position, new residue, counted from the first residue of the VL shown.
The read-out is the apparent dissociation constant on a log10 scale (nM): the lower, the stronger.
Where no diploid with the target was found in that replicate, the entry reads "nd": below detection, most likely a poor binder, though not proof of it.
Three control strains display no target. For library AAYL50, 18% of the pairings with them gave a signal, with a median of 4.19 and one signal in twenty below 2.99, so weak values seen in few replicates may be background. The control count says in how many pairings with the empty strains this scFv gave a signal, with their mean in brackets.
Parent in this assay: reference entry 0.65, copy in this library 1.68.

| # | changes | log10 Kd (nM) by replicate | control signals |
|---|---|---|---|
| 1 | S38H+S58Q+P101A | nd nd nd | 0/9 |
| 2 | V39T+H98I+L102P | nd nd 5.17 | 2/9 (3.36) |
| 3 | S33W+L102E | 3.97 nd 3.59 | 0/9 |
| 4 | S26K+Q27S+L100M | 1.33 1.28 1.47 | 1/9 (3.24) |
| 5 | V29A+T59K+Y97K | nd nd nd | 1/9 (3.87) |
| 6 | S26V+V39I+Q96V | -0.06 0.43 0.27 | 1/9 (3.56) |
| 7 | S26C+R60W+Q95C | 5.32 3.59 nd | 4/9 (4.00) |
| 8 | S25D+S26V+L100H | nd 3.14 nd | 1/9 (3.42) |
| 9 | E32G+N37G+W56N | 0.71 0.89 1.00 | 3/9 (4.60) |
| 10 | R34Y+N37W+H98W | nd nd 3.74 | 3/9 (4.12) |
| 11 | R60M+Q95K+Q96D | nd 4.33 nd | 3/9 (4.27) |
| 12 | A57W+T59E+E61H | 6.29 nd nd | 5/9 (4.31) |
| 13 | Y31W+N37R+P101V | 3.35 3.76 3.46 | 0/9 |
| 14 | K36L+W56L+S62R | 3.46 2.70 3.30 | 1/9 (4.09) |
| 15 | V29F+E32S+T59K | 1.66 1.74 2.01 | 2/9 (3.08) |
| 16 | V29D+T59C+Q96S | 1.25 1.12 1.15 | 5/9 (4.33) |
| 17 | Q27K+V29Y+Q95R | nd nd nd | 2/9 (3.64) |
| 18 | K24A+R34S+L102T | 1.49 1.58 1.39 | 0/9 |
| 19 | R34D+S38N+A57W | 4.34 nd nd | 1/9 (2.91) |
| 20 | K24G+S28W+R99F | nd nd nd | 0/9 |
| 21 | K24E+S33M+Y97E | nd nd nd | 0/9 |
| 22 | S25T+S26T+K36F | nd nd nd | 1/9 (2.56) |
| 23 | V29I+R34G+P101H | 0.29 0.53 0.55 | 2/9 (4.10) |
| 24 | S58A+Q95F | nd nd nd | 1/9 (4.01) |
| 25 | N35D+N37E | 1.31 1.74 2.34 | 0/9 |
| 26 | Q27Y+R34V+N37C | 1.67 2.02 1.88 | 0/9 |
| 27 | Q27I+V29K+S62W | 1.21 1.15 1.44 | 0/9 |
| 28 | Q27F+S58N+P101F | 1.25 1.33 1.61 | 2/9 (3.76) |
| 29 | R34G+E61T+R99Q | 0.76 0.93 1.00 | 0/9 |
| 30 | T59M+L100W | nd nd nd | 0/9 |
| 31 | Q27K+H98T+L102N | 2.94 2.14 2.60 | 1/9 (4.76) |
| 32 | Q27V+S62W+Q95F | 1.56 1.46 1.64 | 1/9 (3.83) |
| 33 | E61M+L100C+S103Y | nd nd 2.36 | 0/9 |
| 34 | S28A+A40W+W56D | nd nd nd | 0/9 |
| 35 | S33C+R34H+Q95P | nd nd 3.49 | 2/9 (3.71) |
| 36 | S28K+E32D+L100W | 4.72 nd nd | 1/9 (3.85) |
| 37 | S28K+N35H | 1.69 1.76 1.99 | 3/9 (4.65) |
| 38 | V39I+E61H | 2.44 2.64 2.16 | 1/9 (4.82) |
| 39 | Y31S+S58T+E61V | 0.52 0.85 0.64 | 0/9 |
| 40 | K24L+T59N+Q96E | 4.47 5.50 nd | 3/9 (4.18) |
| 41 | S38C+A40M+S58L | nd nd nd | 4/9 (4.38) |
| 42 | E32K+V39Y | nd nd 5.08 | 5/9 (4.01) |
| 43 | Y31N+S33Q+H98Q | 0.93 1.13 1.13 | 2/9 (5.45) |
| 44 | S26D+T59R+L100I | 2.20 2.25 2.18 | 5/9 (4.44) |
| 45 | S28H+S33I+R34C | 3.04 2.63 6.00 | 1/9 (4.11) |
| 46 | V39H+E61V+R99E | nd 2.99 5.33 | 0/9 |
| 47 | N35I+S58W+Q95M | nd nd nd | 0/9 |
| 48 | Q96D+H98L+P101L | 0.49 0.72 0.71 | 1/9 (5.31) |
| 49 | L30Q+V39G | nd nd nd | 0/9 |
| 50 | A57V+Y97S+P101Y | nd nd nd | 0/9 |
| 51 | S25Y+R60A+E61P | 3.97 4.25 3.36 | 0/9 |

Excerpt, the final 3 entries:

changes	log10 Kd (nM) by replicate	control signals
L30Q+V39G	nd nd nd	0/9
A57V+Y97S+P101Y	nd nd nd	0/9
S25Y+R60A+E61P	3.97 4.25 3.36	0/9